According to patent US20120196795A1:

Experiments:
Assay in all cases: cell-based or functional assay
GLP-1 receptor [1] = biological target: GLP-1 receptor (UniProt P32301)
GLP-1 receptor [2] = biological target: GLP-1 receptor (UniProt P32301); remark: listed apart in the source
GLP-1 receptor [3] = biological target: GLP-1 receptor (UniProt P32301); remark: listed apart in the source

- EC50 of increase of intracellular cAMP in PC12 cells (GLP-1 receptor [1]): 2.7 nM
- EC50 of increase of intracellular cAMP in PC12 cells (GLP-1 receptor [2]): 2.5 nM
- Log EC50 of increase of intracellular cAMP in PC12 cells (GLP-1 receptor [2]): -8.61 log M
- maximum of increased cAMP (Emax) in PC12 cells (pmol/100 µg (protein)) (GLP-1 receptor [2]): 129
- EC50 of increase of intracellular cAMP in PC12 cells (GLP-1 receptor [3]): 1.3 nM
- maximum of increased cAMP (Emax) in PC12 cells (pmol/100 µg (protein)) (GLP-1 receptor [3]): 104
Substance: PB-105 (Exendin-4, Cys substituted at position 39) (peptide)

Read-outs that look alike come from different tables or passages of the source.
